Publication PMC5740381 (Antimicrobial Agents and Chemotherapy, 2017)

Amino acid sequences for entries named in this document (tags omitted). Residues count along the entry.
UniProt O91936, 1028-2462: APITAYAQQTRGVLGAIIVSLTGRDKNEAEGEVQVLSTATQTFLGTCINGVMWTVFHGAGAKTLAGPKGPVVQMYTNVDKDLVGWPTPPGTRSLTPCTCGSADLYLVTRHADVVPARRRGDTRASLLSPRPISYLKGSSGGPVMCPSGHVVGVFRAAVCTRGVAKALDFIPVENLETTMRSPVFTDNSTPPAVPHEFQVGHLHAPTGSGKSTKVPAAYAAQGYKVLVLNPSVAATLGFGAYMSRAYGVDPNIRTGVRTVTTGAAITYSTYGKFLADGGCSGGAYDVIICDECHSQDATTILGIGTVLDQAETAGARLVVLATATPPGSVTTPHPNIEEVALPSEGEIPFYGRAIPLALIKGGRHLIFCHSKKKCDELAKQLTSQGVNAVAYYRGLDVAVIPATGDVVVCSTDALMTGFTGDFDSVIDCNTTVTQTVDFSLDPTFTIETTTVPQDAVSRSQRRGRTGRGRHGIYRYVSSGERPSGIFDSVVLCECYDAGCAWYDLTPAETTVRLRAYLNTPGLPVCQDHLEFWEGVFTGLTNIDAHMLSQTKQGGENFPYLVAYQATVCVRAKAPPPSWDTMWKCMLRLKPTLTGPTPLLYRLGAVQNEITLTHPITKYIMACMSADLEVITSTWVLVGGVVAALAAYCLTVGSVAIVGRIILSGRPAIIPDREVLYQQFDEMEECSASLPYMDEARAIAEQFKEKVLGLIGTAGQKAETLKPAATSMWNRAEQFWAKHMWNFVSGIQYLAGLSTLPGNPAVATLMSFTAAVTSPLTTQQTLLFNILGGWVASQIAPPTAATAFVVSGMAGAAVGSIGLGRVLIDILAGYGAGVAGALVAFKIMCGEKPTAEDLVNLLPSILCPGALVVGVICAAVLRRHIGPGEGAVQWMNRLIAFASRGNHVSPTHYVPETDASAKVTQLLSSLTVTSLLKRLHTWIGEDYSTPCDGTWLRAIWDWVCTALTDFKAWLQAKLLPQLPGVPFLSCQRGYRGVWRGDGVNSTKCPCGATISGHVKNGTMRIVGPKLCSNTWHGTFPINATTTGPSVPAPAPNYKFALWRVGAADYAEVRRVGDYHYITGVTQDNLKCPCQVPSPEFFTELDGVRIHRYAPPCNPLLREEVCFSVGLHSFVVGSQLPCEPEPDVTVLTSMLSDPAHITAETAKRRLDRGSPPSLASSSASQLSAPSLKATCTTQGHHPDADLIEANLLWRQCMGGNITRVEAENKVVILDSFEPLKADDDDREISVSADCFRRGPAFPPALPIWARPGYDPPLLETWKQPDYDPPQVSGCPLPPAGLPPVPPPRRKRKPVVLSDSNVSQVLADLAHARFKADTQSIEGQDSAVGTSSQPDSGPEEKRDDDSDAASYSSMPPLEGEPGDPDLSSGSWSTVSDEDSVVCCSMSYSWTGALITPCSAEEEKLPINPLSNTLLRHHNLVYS

Key:
GT5a SA13 / 5a Wild type [1] = molecular target: T1, GT5a SA13 / 5a Wild type (Hepatitis C virus SA13, UniProt O91936); test: cell-based; set-up: species or system Huh-7; conditions: SD, n = 3
T1 construct: full-length NS3 through first 39 aa of NS5B in genotype 2a JFH-1 chimeric replicon

GT2b / 2b Wild type = tested on: T2, GT2b / 2b Wild type; test: Luciferase reporter assay of HCV replication in stable subgenomic replicon cells, 5% fetal bovine serum, no human plasma (at least 3 experiments).; type: cell-based, Huh-7; conditions: SD, n = 3; read-out: HCV stable replicons in 0% human plasma, Mean EC50 ± SD
T2 construct: NS3 protease domain (N-terminal 251 aa) in genotype 2a JFH-1 chimeric replicon
Source text: (§1) . Five of these nine cell lines have been described previously, including those transfected with genotypes 1a H77, 1b Con1, 3a, 4a, and 6a ([28]). The other four cell lines were established by transfecting cells with a nonchimeric genotype 2a JFH-1 replicon (GenBank accession number AB047639), two genotype 2a JFH-1 chimeric replicons containing either a genotype 2b NS3 protease domain (N-terminal 251 amino acids) or a sequence encoding full-length NS3 through the first 39 amino acids of NS5B from genotype 5a (strain SA13), and one chimeric replicon with a genotype 1b Con1 backbone containing full-length NS3 and NS4A sequences from genotype 6e. The genotype 2b and 6e NS3 sequences were each synthetically constructed based on a consensus sequence derived from the alignment of 15 genotype 2b and 4 genotype 6e sequences, respectively. […] The inhibitory effect of the PIs on HCV replication in replicon cells was determined in Dulbecco's modified Eagle medium containing 5% fetal bovine serum with or without 40% human plasma (Bioreclamation, Westbury, NY). The EC50s were determined using nonlinear regression curve fitting as described previously ([33]).

GT5a SA13 / 5a Wild type [2] = molecular target: T1, GT5a SA13 / 5a Wild type; test: cell-based; set-up: species or system Huh-7; conditions: SD, n = 3; remark: listed apart in the source
[3] = tested on: HCV subgenomic stable replicon GT5a SA13; type: cell-based, Hepatitis C virus; conditions: 0% human plasma, read-out: Mean EC50 ± SD
[4] = tested on: HCV subgenomic stable replicon GT2b; test: Stable HCV replicon luciferase assay in Huh-7 cells; type: cell-based, Hepatitis C virus; conditions: 0% human plasma, read-out: Mean EC50 ± SD
Source text: as §1

Row | SMILES | EC50 (GT5a SA13 / 5a Wild type [1]) [nM] | EC50 (GT2b / 2b Wild type) [nM] | EC50 (GT5a SA13 / 5a Wild type [2]) [nM] | EC50 [3] [nM] | EC50 [4] [nM]
1 | C=C[C@@H]1C[C@]1(NC(=O)[C@@H]1C[C@@H]2CN1C(=O)[C@H](C(C)(C)C)NC(=O)O[C@@H]1C[C@H]1CCCCCc1nc3ccc(OC)cc3nc1O2)C(=O)NS(=O)(=O)C1CC1 [Grazoprevir, grazoprevir (MK-5172)] | 0.06 ± 0.02 | 15 ± 2 | 2.1 ± 0.58 |  | 
2 | C=C[C@@H]1C[C@]1(NC(=O)[C@@H]1C[C@@H]2CN1C(=O)[C@H](C(C)(C)C)NC(=O)O[C@@H]1C[C@H]1CCCCCc1nc3ccc(OC)cc3nc1O2)C(=O)NS(=O)(=O)C1CC1 [Grazoprevir] |  |  |  | 2.1 ± 0.58 | 15 ± 2
